Source: PubChem BioAssay AID504904 (The Scripps Research Institute Molecular Screening Center, 2011)
Only a part is listed here, and it is no random draw. The source made the active and inactive calls. Rule as the data show it: active = activation above about 18%; inactive = the rest.

Amino acid sequences for entries named in this document (tags omitted).
UniProt P35372, whole entry, looked up: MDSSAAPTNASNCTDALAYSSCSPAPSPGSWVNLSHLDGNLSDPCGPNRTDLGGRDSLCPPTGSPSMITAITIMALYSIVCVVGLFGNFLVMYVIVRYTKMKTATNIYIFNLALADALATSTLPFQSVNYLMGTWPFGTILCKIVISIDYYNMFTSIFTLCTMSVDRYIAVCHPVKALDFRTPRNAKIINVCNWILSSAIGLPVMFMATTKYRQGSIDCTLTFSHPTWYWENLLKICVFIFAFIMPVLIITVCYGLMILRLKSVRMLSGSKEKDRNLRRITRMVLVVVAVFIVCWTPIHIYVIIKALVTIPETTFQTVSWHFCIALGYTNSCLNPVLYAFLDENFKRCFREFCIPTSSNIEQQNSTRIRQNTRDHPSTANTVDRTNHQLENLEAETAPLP
UniProt P41143, whole entry, looked up: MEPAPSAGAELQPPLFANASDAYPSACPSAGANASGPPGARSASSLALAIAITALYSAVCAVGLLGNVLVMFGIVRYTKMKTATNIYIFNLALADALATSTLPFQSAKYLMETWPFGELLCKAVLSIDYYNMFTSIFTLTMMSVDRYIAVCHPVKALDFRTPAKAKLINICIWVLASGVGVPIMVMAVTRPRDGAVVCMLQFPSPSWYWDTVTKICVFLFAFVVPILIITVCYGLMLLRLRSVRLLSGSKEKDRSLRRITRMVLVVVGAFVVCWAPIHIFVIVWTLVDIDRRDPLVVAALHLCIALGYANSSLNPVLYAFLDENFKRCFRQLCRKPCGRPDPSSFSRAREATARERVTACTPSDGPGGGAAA

Target: Mu-type opioid receptor (Homo sapiens) + Delta-type opioid receptor (Homo sapiens) (UniProt P35372+P41143)
Assay: OPRM1-OPRD1 heterodimer formation agonism – cell-based, luminescence, confirmation (AID 504904);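 also: 0% = vehicle-treated cells and 100% = reference agonist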
Conditions: cells, MOR-DOR heterodimerization, luminescence complementation; at 9.3 µM; hits give high values

Question: How did the activation turn out when CN1CN(c2ccccc2)C2(CCN(CCCSc3ccccc3NC(=O)/C=C/c3ccccc3)CC2)C1=O was run?
Answer: inactive: 11.5%

Question: O=[N+]([O-])c1cc(Oc2ccc([N+](=O)[O-])cc2C(F)(F)F)cc([N+](=O)[O-])c1 was tested. Which activation did it give?
Answer: active: 33.3%

Question: With Cc1ccc(C)c(CN2CCC(n3nnc4cc(F)ccc43)CC2)c1 as the compound, how does the activation read?
Answer: active: 65.2%

Question: CCn1c(N)[n+](CC(=O)Nc2ccc(SC(F)F)cc2)c2ccccc21 was tested. Which activation did it give?
Answer: active: 75%
